Measurements reported in patent US8975235B2, “Lysophosphatidic acid receptor antagonists” (InterMune, Inc., priority 2011, dated 2015).

Amino acid sequences for entries named in this document (tags omitted).
UniProt Q92633, whole entry: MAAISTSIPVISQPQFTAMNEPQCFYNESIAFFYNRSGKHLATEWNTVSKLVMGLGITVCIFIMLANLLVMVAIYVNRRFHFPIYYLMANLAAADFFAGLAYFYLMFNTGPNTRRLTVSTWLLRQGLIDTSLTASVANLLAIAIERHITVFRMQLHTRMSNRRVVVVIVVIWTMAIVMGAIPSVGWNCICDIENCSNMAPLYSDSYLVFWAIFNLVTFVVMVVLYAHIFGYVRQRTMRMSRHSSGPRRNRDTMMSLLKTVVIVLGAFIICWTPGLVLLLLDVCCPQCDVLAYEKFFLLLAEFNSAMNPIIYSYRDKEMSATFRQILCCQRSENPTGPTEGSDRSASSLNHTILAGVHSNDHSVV
UniProt Q9UBY5, whole entry: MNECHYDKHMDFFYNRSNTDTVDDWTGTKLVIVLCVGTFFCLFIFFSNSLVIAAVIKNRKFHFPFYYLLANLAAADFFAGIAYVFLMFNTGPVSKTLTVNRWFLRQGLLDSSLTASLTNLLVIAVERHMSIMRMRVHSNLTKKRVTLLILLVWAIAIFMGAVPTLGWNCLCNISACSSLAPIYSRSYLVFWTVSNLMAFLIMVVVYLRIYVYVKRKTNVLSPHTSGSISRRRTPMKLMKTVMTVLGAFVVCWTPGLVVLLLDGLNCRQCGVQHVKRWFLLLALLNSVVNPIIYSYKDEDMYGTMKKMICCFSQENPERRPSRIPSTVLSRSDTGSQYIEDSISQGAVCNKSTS

Experiments:
[1] = molecular target: T1, Human LPA1 (Homo sapiens, UniProt Q92633); assay: Beta-Arrestin based assay for human LPA1R antagonists (PathHunter); settings: read-out: Beta Arrestin EC50; CHO cells stably expressing ProLink tagged human LPA1R; agonist LPA 0.5 micromolar
Method: Beta-Arrestin Based Assays for Human LPA1R Antagonists and Agonists
A CHO cell line stably expressing the ProLink™ tagged human LPA1R was obtained from DiscoverX Inc, Fremont, Calif. In this system, β-Arrestin was fused to an N-terminal deletion mutant of β-galactosidase (termed the enzyme acceptor or EA), the human LPA1R was fused to a smaller (42 amino acids) weakly complementing fragment termed ProLink™. […] Cell handling and assays were performed according to protocols specified in the PathHunter® assays kits (DiscoverX, Fremont, Calif.). Assays were performed in quadruplicate in white 384 well plates. End point luminescence data were plotted and fit to a 4 parameter logistic function to obtain IC50 values. For antagonist assays, an […] concentration of agonist (LPA) equal to 0.5 micromolar was used.

[2] = molecular target: T1, Human LPA1; assay: LPA1 calcium flux assay; settings: read-out: Ca Flux LPA1 IC50; human LPA1 expressing CHO cells; stimulated with 10 nM LPA
Method: Establishment of a CHO Cell Line Stably Expressing Human LPA1
A 1.1 kb cDNA encoding the human LPA1 receptor is cloned from human lung. Human lung RNA (Clontech Laboratories, Inc. USA) is reverse transcribed using the RETROscript kit (Ambion, Inc.) and the full-length cDNA for human LPA1 is obtained by PCR of the reverse transcription reaction. The nucleotide sequence of the cloned human LPA1 is determined by sequencing and is confirmed to be identical to the published human LPA1 sequence (An et al. Biochem. Biophys. Res. Commun. 231:619 (1997). The cDNA is cloned into the pcDNA5 pcDNA5/FRT expression plasmid and is transfected in CHO cells using lipofectamine 2000 (Invitrogen Corp., USA). Clones stably expressing human LPA1 are selected using hygromycin and identified as cells that show Ca-influx in response to LPA.
(§1) LPA1 and LPA3 Calcium Flux Assays
Human LPA1 or LPA3 expressing CHO cells were seeded at 20,000-45,000 cells per well in a 96-well poly-D-lysine coated plate one or two days before the assay. Prior to the assay, the cells were washed once with PBS and then cultured in serum-free media overnight. On the day of the assay, a calcium indicator dye (Calcium 4, Molecular Devices) in assay buffer (HBSS with Ca^2+ and Mg^2+ and containing 20 mM Hepes and 0.3% fatty-acid free human serum albumin) was added to each well and incubation continued for 1 hour at 37° C. 10 μl of test compounds in 2.5% DMSO were added to the cells and incubation continued at room temperature for 30 minutes. Cells were then stimulated by the addition of 10 nM LPA and intracellular Ca^2+ measured using the Flexstation 3 (Molecular Devices). IC50s were determined using Graphpad prism analysis of drug titration curves.

[3] = molecular target: Human LPA3 (Homo sapiens, UniProt Q9UBY5); assay: LPA3 calcium flux assay; settings: read-out: Ca Flux LPA3 IC50; human LPA3 expressing CHO cells; stimulated with 10 nM LPA
Method: Establishment of a CHO Cell Line Stably Expressing Human LPA3
A vector containing the human LPA3 receptor cDNA is obtained from the Missouri S&T cDNA Resource Center (www.cdna.org). The full-length cDNA fragment for human LPA3 is obtained by PCR from the vector. The nucleotide sequence of the cloned human LPA3 is determined by sequencing and is confirmed to be identical to the published human LPA3 sequence (NCBI accession number NM_012152). The cDNA is cloned into the pcDNA5 pcDNA5/FRT expression plasmid and is transfected in CHO cells using lipofectamine 2000 (Invitrogen Corp., USA). Clones stably expressing human LPA3 are selected using hygromycin and identified as cells that show Ca-influx in response to LPA.
as §1
Human LPA1 or LPA3 expressing CHO cells were seeded at 20,000-45,000 cells per well in a 96-well poly-D-lysine coated plate one or two days before the assay. Prior to the assay, the cells were washed once with PBS and then cultured in serum-free media overnight. […] Cells were then stimulated by the addition of 10 nM LPA and intracellular Ca^2+ measured using the Flexstation 3 (Molecular Devices). IC50s were determined using Graphpad prism analysis of drug titration curves.

EC50 [1]	IC50 [2]	IC50 [3]	Structure (SMILES)
50 to 500 nM	> 500 nM	–	C[C@@H](OC(=O)Nc1c(-c2ccccc2)noc1-c1ccc(-c2ccc(C3(C(=O)O)CC3)cc2)cc1)c1ccccc1Cl
< 50 nM	< 50 nM	50 to 500 nM	Cc1noc(-c2ccc(-c3ccc(CC(=O)O)c4c3CCC4)cc2)c1NC(=O)O[C@H](C)c1ccccc1Cl
< 50 nM	–	–	C[C@@H](OC(=O)Nc1c(-c2ccc(-c3ccc(C4(C(=O)O)CC4)cc3)cc2)cnn1C1CC1)c1ccccc1
> 500 nM	> 500 nM	–	C[C@@H](OC(=O)Nc1cccnc1Oc1ccc(-c2ccc(CC(=O)O)cc2)cc1)c1ccccc1Cl
> 500 nM	> 500 nM	–	C[C@@H](OC(=O)Nc1c(-c2ccc(-c3ccc(C4(C(=O)O)CC4)cc3)cc2)[nH]c2ccccc12)c1ccccc1Cl
50 to 500 nM	–	–	Cc1noc(-c2ccc(-c3ccc(C4(C(=O)OC5OC(C(=O)O)C(O)C(O)C5O)CC4)cc3)cc2)c1NC(=O)O[C@H](C)c1ccccc1 (stereo partly drawn)
> 500 nM	–	–	O=C(O)Cc1ccc(C2CCN(C(=O)CNC(=O)OCc3ccccc3)CC2)cc1
< 50 nM	< 50 nM	–	C[C@@H](OC(=O)Nc1ocnc1-c1ccc(-c2ccc(C3(C(=O)O)CC3)cc2)cc1)c1ccccc1
< 50 nM	< 50 nM	–	C[C@@H](OC(=O)Nc1cnnn1-c1ccc(-c2ccc(C3(C(=O)O)CC3)cc2)cc1)c1ccccc1Cl
50 to 500 nM	–	–	Cc1nsc(-c2ccc(-c3ccc(C(C)(C)C(=O)O)cc3)cc2)c1NC(=O)O[C@H](C)c1ccccc1
< 50 nM	–	–	Cc1snc(-c2ccc(-c3ccc(CC(=O)O)cc3)cc2)c1NC(=O)O[C@H](C)c1ccccc1Cl
< 50 nM	50 to 500 nM	> 500 nM	Cc1nsc(-c2ccc(-c3ccc(C4(C(=O)O)CC4)cc3)cc2)c1NC(=O)O[C@H](C)c1ccccc1Cl
< 50 nM	50 to 500 nM	–	Cc1noc(-c2ccc(-c3ccc(C4(C(=O)O)CC4)cc3)cc2)c1NC(=O)O[C@H](C)c1ccccc1Cl
< 50 nM	–	–	C[C@@H](OC(=O)Nc1c(-c2ccc(-c3ccc(C4(C(=O)O)CC4)cc3)cc2)nc2ccccn12)c1ccccc1
< 50 nM	–	–	C[C@@H](OC(=O)Nc1c(-c2ccc(-c3ccc(C4(C(=O)O)CC4)cc3)cc2)nnn1C)c1ccccc1
50 to 500 nM	–	–	CCOC(=O)Cc1ccc(-c2ccc(-c3onc(C)c3NC(=O)O[C@H](C)c3ccccc3Cl)cc2)c2ccccc12
> 500 nM	–	–	Cc1[nH]nc(-c2ccc(-c3ccc(CC(=O)O)cc3)cc2)c1NC(=O)O[C@H](C)c1ccccc1Cl
> 500 nM	–	–	O=C(O)Cc1ccc(C2CCN(C(=O)CCCNC(=O)OCc3ccccc3)CC2)cc1
> 500 nM	–	–	C[C@@H](OC(=O)Nc1c(-c2ccc(-c3ccc(C4(C(=O)O)CC4)cc3)cc2)sc2nc(C(F)(F)F)ccc12)c1ccccc1

Structure (SMILES)	EC50 [1]	IC50 [2]	IC50 [3]
Cc1onc(-c2ccc(-c3ccc(CC(=O)O)cc3)cc2)c1NC(=O)O[C@H](C)c1ccccc1Cl	< 50 nM	–	–
